Data taken from US20140308244A1, “Combination Therapy for Treatment of Inflammatory Demyelinating Disease” (The Board of Trustees of the Leland Stanford Junior …, priority 2011, published 2014).

Columns and labels:
EAE [1] = test: EAE relapse model: Rebif and/or Lisinopril treatment initiated at peak of disease; assay type: in vivo; conditions: Rebif daily 0.25 μg/mouse intraperitoneally, Lisinopril 1 mg/kg/day orally
EAE [2] = test: EAE relapse model: Rebif pro-treatment after immunization, Lisinopril at peak of disease; assay type: in vivo; conditions: over 50 days, Rebif 1 μg/mouse intraperitoneally every other day for 5 doses from 1 day after immunization (pro-treatment), Lisinopril or PBS daily, orally

B1: Rebif: commercially available interferon beta (IFN-β1a) product (EMD Serono) approved for the treatment of MS (protein, UniProt P01574 22-187, looked up)
Interferon beta: MSYNLLGFLQRSSNFQCQKLLWQLNGRLEYCLKDRMNFDIPEEIKQLQQFQKEDAALTIYEMLQNIFAIFRQDSSSTGWNETIVENLLANVYHQINHLKTVLEEKLEKEDFTRGKLMSSLHLKRYYGRILHYLKAKEYSHCAWTIVRVEILRNFYFINRLTGYLRN
Average Relapse Rate (EAE [1]): 1.0
Average Relapse Rate (EAE [1]; listed as PBS/Rebif): 1.00
Average Relapse Rate (EAE [2]): 2.0
Average Relapse Rate (EAE [2]; listed as Rebif/PBS): 2.00
